Assay results reported in PubChem BioAssay AID602363 (Broad Institute, 2012).
“And” between values parts separate entries of the source, which are not always exact repeats. Equal entries are not always repeated. Among all 350,000 compounds or so, about 450 (0.13%) were called active.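 The calls were made as follows: active = replicate mean at a twofold rise or more (about +100% in these data); inactive = the rest.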 Only a selection was taken, and actives are over-represented in it overall. Some compounds were tested as several samples or in several runs, with calls that do not always agree.

assay: UUG initiation codon usage in yeast – whole organism, S. cerevisiae, single point, plate reader, primary screen (AID 602363);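 also: firefly luciferase made from a UUG start codon reports start codon fidelity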; conditions: S. cerevisiae UUG-firefly luciferase reporter, luminescence/redox ratio; at 18.7 µM; stronger effect = higher value

Compound	activity score
CCOCN(C(=O)Cn1c(C(C)O)nc2ccccc21)c1c(C)cccc1CC (stereo not drawn)	-13.4% (inactive)
CCc1cccc(C)c1N(C(=O)Cn1c(CO)nc2ccccc21)C(C)COC (stereo not drawn)	593% (active)
Cc1ccccc1OC(=O)Cn1c(C(F)(F)F)nc2ccccc21	-13% (inactive)
COc1cc(C(=O)NCc2nnc(SCC(=O)c3ccc(Cl)cc3)o2)cc(OC)c1OC	-3.27% (inactive)
O=C(COc1ccc(Cl)cc1)NCc1nnc(SCC(=O)NCC2CCCO2)o1 (stereo not drawn)	199% (active)
COc1ccc2c(C)cc(SCC(=O)NCC3CCCO3)nc2c1 (stereo not drawn)	-4.78% (inactive)
O=S(=O)(N[C@@H]1CC[C@@H](CCn2cc(-c3ccccn3)nn2)O[C@@H]1CO)c1cccc(Cl)c1	-16.7% (inactive)
C[C@@H]1CN([C@@H](C)CO)C(=O)c2cccc(NC(=O)Nc3ccc4c(c3)OCO4)c2O[C@@H]1CN(C)C(=O)Nc1ccc(F)cc1	-5.75% (inactive)
CS(=O)(=O)Nc1ccc2c(c1)[C@H]1C[C@@H](CC(=O)N3CCOCC3)O[C@@H](CO)[C@H]1O2	-23.5% (inactive)
C[C@H](CO)N1C[C@H](C)[C@@H](CN(C)S(C)(=O)=O)Oc2cc(C#CC3CC3)ccc2S1(=O)=O	13.1% (inactive)
O=C(Nc1ccccc1N1CCCC1)c1ccc2ccccc2c1	-12.9% (inactive)
c1ccc(-n2cccc2)c(N2CCCCC2)c1	101% (active)
O=C(NC(=S)Nc1ccccc1N1CCCCC1)c1ccc(F)cc1	-15.2% (inactive)
C[C@@H]1CCCCO[C@H](CN(C)Cc2ccccc2)[C@@H](C)CN([C@@H](C)CO)C(=O)c2cc(NC(=O)Nc3ccc(F)cc3)ccc2O1	33.7% (inactive)
C[C@H](CO)N1C[C@H](C)[C@@H](CN(C)C)Oc2c(NC(=O)Nc3ccc(F)cc3)cccc2C1=O	17.5% (inactive)
CC(C)C#Cc1ccc2c(c1)O[C@H](CN(C)Cc1ccccn1)[C@H](C)CN([C@H](C)CO)S2(=O)=O	-7.68% (inactive)
CO[C@H]1CN(C)C(=O)c2cc(NC(=O)C3CCCCC3)ccc2OC[C@H](C)N(C(=O)c2ccccc2)C[C@H]1C	-6.56% (inactive)
C[C@H](CO)N1C[C@H](C)[C@H](CN(C)S(=O)(=O)c2cn(C)cn2)Oc2c(NC(=O)C3CCOCC3)cccc2C1=O	-12.8% (inactive)
COc1ccc(NC(=O)N(C)C[C@H]2OCCCC[C@@H](C)Oc3ccc(NC(=O)NC4CCCCC4)cc3C(=O)N([C@H](C)CO)C[C@H]2C)cc1	21.6% (inactive)
COc1ccc(NC(=O)N(C)C[C@H]2OCCCC[C@@H](C)Oc3ccc(NC(=O)NC4CCCCC4)cc3C(=O)N([C@@H](C)CO)C[C@H]2C)cc1	107% (active)
COc1ccc(NC(=O)N(C)C[C@@H]2OCCCC[C@@H](C)Oc3ccc(NC(=O)NC4CCCCC4)cc3C(=O)N([C@H](C)CO)C[C@@H]2C)cc1	2.02% (inactive)
C[C@@H]1CN([C@H](C)CO)C(=O)c2cc(C#CC3CCCC3)cnc2O[C@H]1CN(C)C(=O)C1CC1	-6.27% (inactive)
C[C@@H]1CN([C@H](C)CO)C(=O)Cc2cc(NS(=O)(=O)c3ccc(Cl)cc3)ccc2O[C@H]1CN(C)S(=O)(=O)c1cccs1	-8.01% (inactive)
O=C(Cc1ccncc1)NCC[C@@H]1CC[C@H](NC(=O)Nc2ccc(Cl)cc2)[C@@H](CO)O1	34.2% (inactive)
CN1CCN(C(=O)/C(=C\c2cccs2)NC(=O)c2cccs2)CC1	0.022% (active)
Cc1ccc(C(=O)N/C(=C\c2cn(C)c3ccccc23)C(=O)N2CCN(C)CC2)cc1	0.501% (inactive)
CC1CCN(C(=O)/C(=C\c2ccccc2)NC(=O)c2ccccc2)CC1	-8.7% (inactive)

Compound	activity score
CCNC(=O)C[C@@H]1CC[C@@H]2[C@H](COc3ccc(NS(=O)(=O)c4ccccc4C)cc3C(=O)N2C)O1	-8.72% (inactive)
O=C(C[C@@H]1C=C[C@H](NC(=O)c2ccc3c(c2)OCO3)[C@H](CO)O1)NCc1ccc(Oc2ccccc2)cc1	8.13% (inactive)
Cc1noc(C)c1S(=O)(=O)N(C)C[C@@H]1OCCCC[C@H](C)Oc2ccc(NC(=O)NC(C)C)cc2C(=O)N([C@H](C)CO)C[C@@H]1C	27% (inactive)
CC(C)C#Cc1cnc2c(c1)C(=O)N([C@@H](C)CO)C[C@@H](C)[C@@H](CN(C)C(=O)c1cccc(F)c1)O2	0.693% (inactive)
C[C@@H]1CCCCO[C@@H](CN(C)C(=O)C2CCCCC2)[C@H](C)CN([C@H](C)CO)C(=O)c2cc(NC(=O)CCC(F)(F)F)ccc2O1	21.1% (inactive)
COc1ccccc1CNC(=O)C[C@@H]1CC[C@H](NC(=O)CN(C)C)[C@@H](CO)O1	-14.1% (inactive)
COc1ccc(NC(=O)Nc2ccc3c(c2)C(=O)N([C@@H](C)CO)C[C@@H](C)[C@H](CN(C)C(=O)CCC(F)(F)F)OCCCC[C@@H](C)O3)cc1	5.29% (inactive)
COc1cccc(-c2ccc3c(c2)O[C@H](CN(C)C(=O)c2ccccc2F)[C@@H](C)CN([C@@H](C)CO)S3(=O)=O)c1	0.848% (inactive)
CCCNC(=O)[C@@H]1[C@@H](CO)[C@@H]2Cn3c(ccc(-c4cccc(OC)c4)c3=O)[C@H]1N2C(=O)NCCC	4.04% (inactive)
C[C@H]1CN([C@@H](C)CO)C(=O)Cc2cc(NS(=O)(=O)c3ccc(Cl)cc3)ccc2O[C@H]1CN(C)S(C)(=O)=O	-4.94% (inactive)
COc1cc(-c2c(-c3ccc4c(c3)OCO4)noc2C)ccc1F	-5.42% (inactive)
Cc1onc(-c2ccc(Cl)cc2)c1-c1ccnn1S(=O)(=O)c1ccc(Cl)cc1	174% (active)
Cn1nc(-c2ccccc2)c(-c2nc(-c3ccc(Cl)cc3)no2)c1Cl	-23.8% (inactive)
C[C@H]1CN([C@@H](C)CO)S(=O)(=O)c2ccc(Br)cc2O[C@H]1CN(C)C(=O)C1CC1	11.3% (inactive)
CO[C@@H]1CN(C)C(=O)c2cc(NC(C)=O)ccc2OC[C@H](C)N(C(=O)Cc2ccccn2)C[C@@H]1C	-3.54% (inactive)
C[C@@H]1CN([C@@H](C)CO)C(=O)c2cc(NC(=O)c3ccncc3)ccc2O[C@H]1CN(C)S(=O)(=O)c1ccc(Cl)cc1	0.708% (inactive)
C[C@@H]1CN([C@@H](C)CO)C(=O)c2cc(Br)cnc2O[C@@H]1CN(C)C(=O)C1CCCCC1	137% (active) and -1.46% (inactive)
C[C@H]1CN([C@@H](C)CO)C(=O)c2cc(-c3ccncc3)cnc2O[C@@H]1CN(C)C(=O)C1CCCCC1	-11.6% (inactive)
C[C@@H]1CN([C@H](C)CO)C(=O)c2cc(Br)cnc2O[C@@H]1CN(C)C(=O)C1CC1	-8.5% (inactive)
CCC(=O)N(C)C[C@H]1Oc2cc(-c3cccc(C#N)c3)ccc2S(=O)(=O)N([C@@H](C)CO)C[C@@H]1C	12.2% (inactive)
CCS(=O)(=O)Nc1ccc2c(c1)C(=O)N(C)[C@H]1CC[C@H](CC(=O)Nc3ccccc3)O[C@@H]1CO2	1.74% (inactive)
CC(C)NC(=O)N[C@H]1CC[C@@H](CCNC(=O)C2CCC2)O[C@@H]1CO	-11.4% (inactive)
COc1ccccc1-c1ccc([C@@H]2[C@@H](CO)N3CCCCN(S(=O)(=O)c4cn(C)cn4)C[C@H]23)cc1	-0.721% (inactive)
COc1ccc(NC(=O)N(C)C[C@@H]2Oc3ccc(NC(=O)Cn4cnnn4)cc3C(=O)N([C@H](C)CO)C[C@@H]2C)cc1	2.52% (inactive)
O=C(N[C@H]1CC[C@H](CCNS(=O)(=O)c2ccc(F)cc2)O[C@H]1CO)c1cccnc1	-1.19% (inactive)
C[C@H]1CCCCO[C@@H](CN(C)Cc2ccc3c(c2)OCO3)[C@@H](C)CN([C@@H](C)CO)C(=O)c2cc(NC(=O)Nc3ccc(F)cc3)ccc2O1	18.3% (inactive)
